Drawing on PubChem BioAssay AID488847 (NMMLSC, 2010), this text covers inhibition of aptamer binding for 66 compounds.

Chains of the proteins cited; added tags and fusions are not shown.
UniProt P25098, whole entry: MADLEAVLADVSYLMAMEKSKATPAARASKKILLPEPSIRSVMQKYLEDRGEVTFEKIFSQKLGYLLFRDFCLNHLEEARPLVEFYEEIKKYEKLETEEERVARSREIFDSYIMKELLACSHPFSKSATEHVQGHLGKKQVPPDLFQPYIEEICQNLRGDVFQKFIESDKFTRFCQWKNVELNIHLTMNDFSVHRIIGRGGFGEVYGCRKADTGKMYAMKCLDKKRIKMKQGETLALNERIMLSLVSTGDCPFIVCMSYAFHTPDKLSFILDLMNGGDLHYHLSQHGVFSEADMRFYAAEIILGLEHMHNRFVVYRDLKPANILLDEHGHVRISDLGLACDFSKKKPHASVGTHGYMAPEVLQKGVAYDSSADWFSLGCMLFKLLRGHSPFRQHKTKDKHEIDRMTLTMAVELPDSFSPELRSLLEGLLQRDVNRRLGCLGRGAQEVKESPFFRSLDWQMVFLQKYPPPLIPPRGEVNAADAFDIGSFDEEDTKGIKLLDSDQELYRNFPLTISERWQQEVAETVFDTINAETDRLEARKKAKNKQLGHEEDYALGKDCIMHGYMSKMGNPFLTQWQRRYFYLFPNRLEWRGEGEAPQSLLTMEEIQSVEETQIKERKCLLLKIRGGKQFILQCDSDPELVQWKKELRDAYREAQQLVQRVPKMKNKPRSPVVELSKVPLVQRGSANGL

The list shows a part of the results, in another mix than the full data. Activity calls are given as the source filed them.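 The calls were made as follows: active = inhibition of aptamer binding above 40%, roughly 3 SD of noise, on plates passing a quality check; inactive = the rest.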

The test addresses Beta-adrenergic receptor kinase 1 (Homo sapiens) (UniProt P25098). As to the kind of experiment: compounds blocking aptamer binding on GRK2 – biochemical, human GRK2, bead flow cytometry, HTS, primary screen (AID 488847).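 Also: median bead fluorescence of bound FAM aptamer so fluorescent compounds give negative values.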 Particulars: FAM-aptamer displacement from GRK2, at 10 µM, active compounds read high.
With `O=C(NCC1(N2CCOCC2)CCCCC1)c1cc2ccccc2o1`, the inhibition of aptamer binding is inactive: 0%.

With `Cc1cc(C)cc(N(C(=O)c2ccccc2)C2CCN(C(=O)OC(C)(C)C)CC2)c1`, the inhibition of aptamer binding was inactive: 9%.

For the compound `O=C(NCC1(N2CCCCC2)CCCCC1)c1ccc(Cl)nc1`, the inhibition of aptamer binding was inactive: 0%.

As for `CCOC(=O)N1CCC(Nc2ccc(OC)cc2)CC1`, the inhibition of aptamer binding was inactive: 1%.

With `COc1ccc(Cl)cc1C(=O)NCC1(N2CCOCC2)CCCCC1`, the inhibition of aptamer binding was inactive: 0%.

Consider `O=C(OC1CN2CCC1CC2)C1c2ccccc2Oc2ccccc21` (stereo unspecified), for which the inhibition of aptamer binding is inactive: 1%.

On to `O=C(NCC1(N2CCCCC2)CCCCC1)c1ccc(Cl)s1`, for which the inhibition of aptamer binding is inactive: 0%.

As for `N#CC1(Nc2ccccc2)CCN(Cc2ccccc2)CC1`, the inhibition of aptamer binding is inactive: 0%.

`O=C(NCC1(N2CCCCC2)CCCCC1)c1cccs1`: the inhibition of aptamer binding was inactive: 0%.

As for `O=C(NCC1(N2CCCCC2)CCCCC1)c1ccc(=O)[nH]c1`, the inhibition of aptamer binding is inactive: 3%.

Take `COc1ccc(C(=O)NCC2(N3CCCCC3)CCCCC2)c(OC)c1OC`: the inhibition of aptamer binding was inactive: 0%.

In the case of `CC(C)(C)OC(=O)N1CCC(N(C(=O)c2ccccc2)c2ccc(F)cc2)CC1`, the inhibition of aptamer binding was inactive: 0%.

For `COc1ccc(C(=O)NCC2(N3CCCCC3)CCCCC2)cc1`, the inhibition of aptamer binding was inactive: 0%.

Take `CSc1ccccc1C(=O)NCC1(N2CCCCC2)CCCCC1`: the inhibition of aptamer binding was inactive: 0%.

As to `Cc1ccc(OCC(C)C)c(CN(CCCl)CCCl)c1`, the inhibition of aptamer binding is inactive: 0%.

With `COc1cc(C(=O)NCC2(N(C)C)CCCCC2)ccc1OC(F)F`, the inhibition of aptamer binding is inactive: 0%.

Take `CCOC(=O)N1CCC(Nc2cccc(C)c2)CC1`: the inhibition of aptamer binding is inactive: 1%.

As to `CCOc1ccc(C)cc1CN(CCCl)CCCl`, the inhibition of aptamer binding was inactive: 0%.

In the case of `COc1ccc(NC2CCN(CCc3ccccc3)CC2)c(OC)c1`, the inhibition of aptamer binding is inactive: 0%.

In the case of `CCOC(=O)N1CCC(Nc2ccc(F)cc2)CC1`, the inhibition of aptamer binding was inactive: 0%.

`O=C(NCC1(N2CCCCC2)CCCCC1)c1ccc(F)cc1`: the inhibition of aptamer binding is inactive: 0%.

On to `O=C(NCC1(N2CCCCC2)CCCCC1)c1cccc(C(F)(F)F)c1`, for which the inhibition of aptamer binding is inactive: 0%.

As for `CN1CCN(CCOC(=O)C(O)(c2ccccc2)c2ccccc2)CC1`, the inhibition of aptamer binding was inactive: 0%.

For the compound `COc1ccc(NC2CCN(C(=O)OC(C)(C)C)CC2)cc1`, the inhibition of aptamer binding was inactive: 0%.

In the case of `COc1cc(C(=O)NCC2(N3CCCCC3)CCCCC2)ccc1OC(F)F`, the inhibition of aptamer binding was inactive: 0%.

As for `O=C(NCC1(N2CCOCC2)CCCCC1)c1cc(=O)[nH]c2ccccc12`, the inhibition of aptamer binding is inactive: 3%.

Consider `O=C(NCC1(N2CCCCC2)CCCCC1)c1ccc(OC(F)F)cc1`, for which the inhibition of aptamer binding is inactive: 0%.

Turning to `O=C(NCC1(N2CCCCC2)CCCCC1)c1cccc([N+](=O)[O-])c1`, the inhibition of aptamer binding was inactive: 0%.

As for `N#CC1(Nc2ccccc2)CCN(CCc2ccccc2)CC1`, the inhibition of aptamer binding was inactive: 0%.

In the case of `CCN1CCC(Nc2ccc(Cl)cc2)CC1`, the inhibition of aptamer binding was inactive: 5%.

In the case of `O=C(NCC1(N2CCCCC2)CCCCC1)c1cncc(Br)c1`, the inhibition of aptamer binding was inactive: 0%.

`CN1CCC(Nc2cccc(F)c2)CC1`: the inhibition of aptamer binding was inactive: 4%.

With `CCCOc1ccc(C(=O)NCC2(N(C)C)CCCCC2)cc1OC`, the inhibition of aptamer binding is inactive: 0%.

As to `CN(C)c1cccc(C(=O)NCC2(N3CCCCC3)CCCCC2)c1`, the inhibition of aptamer binding was inactive: 0%.

As to `COc1ccc(CN(CCCl)CCCl)cc1Cl`, the inhibition of aptamer binding was inactive: 0%.

For the compound `CC(C)c1ccc(NC2CCN(C(=O)OC(C)(C)C)CC2)cc1`, the inhibition of aptamer binding is inactive: 0%.

On to `O=C(NCC1(N2CCOCC2)CCCCC1)c1cc(F)c(F)cc1Cl`, for which the inhibition of aptamer binding is inactive: 0%.

As for `COc1cc(OC)c(C(=O)NCC2(N(C)C)CCCCC2)cc1OC`, the inhibition of aptamer binding was inactive: 0%.

With `N/C(=N\O)c1c(N)no[n+]1[O-]`, the inhibition of aptamer binding is inactive: 0%.

On to `CCOC(=O)N1CCC(Nc2ccc(C)cc2)CC1`, for which the inhibition of aptamer binding was inactive: 0%.

As for `O=C(OC1CN2CCC1CC2)C1c2ccccc2C=Cc2ccccc21` (stereo unspecified), the inhibition of aptamer binding is inactive: 0%.

As for `CCc1cc(C(=O)NCC2(N3CCCCC3)CCCCC2)sc1C`, the inhibition of aptamer binding is inactive: 0%.

`O=C(NCC1(N2CCOCC2)CCCCC1)c1cc(Br)ccc1Cl`: the inhibition of aptamer binding was inactive: 3%.

Take `COc1cc(C(=O)NCC2(N3CCOCC3)CCCCC2)cc(OC)c1C`: the inhibition of aptamer binding was inactive: 0%.

On to `COc1ccc(C(=O)NCC2(N3CCOCC3)CCCCC2)cc1OC`, for which the inhibition of aptamer binding is inactive: 0%.

For the compound `CCCN1CCC(Nc2cc(OC)cc(OC)c2)CC1`, the inhibition of aptamer binding is inactive: 0%.

Turning to `c1ccc(CN2CCC(Nc3ccccc3)CC2)cc1`, the inhibition of aptamer binding is inactive: 0%.

As for `CN(C)C1(CNC(=O)c2cccc(C#N)c2)CCCCC1`, the inhibition of aptamer binding is inactive: 0%.

Take `CC(C)(C)OC(=O)N1CCC(N(C(=O)c2ccccc2)c2ccc(Cl)cc2)CC1`: the inhibition of aptamer binding was inactive: 5%.

Regarding `N#Cc1ccc(C(=O)NCC2(N3CCCCC3)CCCCC2)cc1`, the inhibition of aptamer binding is inactive: 0%.

Consider `CCN1CCC(Nc2cccc(F)c2)CC1`, for which the inhibition of aptamer binding was inactive: 0%.

`CN(C)c1ccc(C(=O)NCC2(N3CCCCC3)CCCCC2)cc1`: the inhibition of aptamer binding was inactive: 5%.

With `O=C(NCC1(N2CCCCC2)CCCCC1)c1ccco1`, the inhibition of aptamer binding is inactive: 0%.

Turning to `COc1cc(OC)cc(C(=O)NCC2(N3CCCCC3)CCCCC2)c1`, the inhibition of aptamer binding was inactive: 0%.

As for `Fc1ccccc1NC1CCN(Cc2ccccc2)CC1`, the inhibition of aptamer binding is inactive: 1%.

For `Cc1ccc(C(=O)NCC2(N3CCCCC3)CCCCC2)o1`, the inhibition of aptamer binding was inactive: 0%.

In the case of `CCC(CO)(C(=O)OC1CN2CCC1CC2)c1ccccc1` (stereo unspecified), the inhibition of aptamer binding was inactive: 0%.

Consider `COc1cc(OC)cc(C(=O)NCC2(N3CCOCC3)CCCCC2)c1`, for which the inhibition of aptamer binding is inactive: 1%.

On to `COc1cccc(C(=O)N(c2cc(C)cc(C)c2)C2CCN(C(=O)OC(C)(C)C)CC2)c1`, for which the inhibition of aptamer binding was inactive: 0%.

In the case of `CCCOc1ccc(C)cc1CN(CCCl)CCCl`, the inhibition of aptamer binding was inactive: 0%.

As for `CN1CCC(Nc2ccc(Cl)cc2)CC1`, the inhibition of aptamer binding is inactive: 0%.

Consider `CN1CCC(Nc2ccc(F)c(Cl)c2)CC1`, for which the inhibition of aptamer binding is inactive: 2%.

As to `CCOc1ncccc1C(=O)NCC1(N2CCOCC2)CCCCC1`, the inhibition of aptamer binding is inactive: 1%.

Consider `CCCOc1ccc(C(=O)NCC2(N(C)C)CCCCC2)cc1`, for which the inhibition of aptamer binding was inactive: 3%.

For the compound `O=C(O)C1(Nc2ccccc2)CCN(Cc2ccccc2)CC1`, the inhibition of aptamer binding was inactive: 0%.

For `CC(C)(C)OC(=O)N1CCC(Nc2ccccc2)CC1`, the inhibition of aptamer binding is inactive: 0%.
